# From PubChem BioAssay AID2216 (Broad Institute, 2009)
# The list shows a part of the results, in another mix than the full data. Records with an inconclusive call do not appear. The source made the active and inactive calls.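 How the source made its calls: active means more than half of the replicate wells show a fall in the fluorescence ratio signal beyond about 16% (limit read from the data, passing the limit was not always enough); inconclusive means exactly half of the replicate wells pass the set limit; inactive means fewer than half of replicates pass the limit.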
# Tested on: Ran GTPase (GTP-bound) - importin-beta complex
# Experiment: disruptors of Ran-importin-beta complex formation – biochemical, FRET, CFP-Ran, YFP-importin-beta, homogeneous, primary screen (AID 2216);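 further: 0% = DMSO wells and 100% = Ran loaded with GDP instead of GTP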
# Settings: cell-free CFP-Ran/YFP-importin-beta FRET ratio; stronger effect = higher value; concentration not given here
row,Structure (SMILES),inhibition
1,Cc1cc(C)cc(OP(C)(=O)Nc2ccc(C)cc2C)c1 (configuration not stated),inactive: -1.89%
2,CP(=O)(OC12CC3CC(CC(C3)C1)C2)OC12CC3CC(CC(C3)C1)C2,inactive: -2.7%
